Experimental data reported in US9416127B2, “Triazole carboxamides and uses thereof” (Hoffmann-La Roche Inc., priority 2012, dated 2016).

Amino acid sequences for entries named in this document (tags omitted).
UniProt Q923Y8, whole entry: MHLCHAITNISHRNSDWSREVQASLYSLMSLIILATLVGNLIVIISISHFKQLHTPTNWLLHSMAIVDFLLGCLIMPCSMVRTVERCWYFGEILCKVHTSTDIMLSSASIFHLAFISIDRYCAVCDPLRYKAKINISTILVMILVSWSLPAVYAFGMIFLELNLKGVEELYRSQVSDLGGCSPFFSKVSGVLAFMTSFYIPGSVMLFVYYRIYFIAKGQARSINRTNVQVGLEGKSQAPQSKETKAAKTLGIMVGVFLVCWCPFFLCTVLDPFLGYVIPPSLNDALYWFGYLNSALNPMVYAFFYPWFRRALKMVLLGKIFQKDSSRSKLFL

Target: mouse TAAR1 (Mus musculus (Mouse), UniProt Q923Y8)
Assay: Radioligand binding assay on mouse TAAR1
Details: mouse TAAR1, HEK-293 membranes; first value of mouse/rat cell
Protocol: Construction of TAAR Expression Plasmids and Stably Transfected Cell Lines
For the construction of expression plasmids the coding sequences of human, rat and mouse TAAR 1 were amplified from genomic DNA essentially as described by Lindemann et al.. The Expand High Fidelity PCR System (Roche Diagnostics) was used with 1.5 mM Mg^2+ and purified PCR products were cloned into pCR2.1-TOPO cloning vector (Invitrogen) following the instructions of the manufacturer. PCR products were subcloned into the pIRESneo2 vector (BD Clontech, Palo Alto, Calif.), and expression vectors were sequence verified before introduction in cell lines.
HEK293 cells (ATCC # CRL-1573) were cultured essentially as described by Lindemann et al. (2005). […]
HEK-293 cells stably expressing mouse TAAR1 were maintained at 37° C. and 5% CO2 in DMEM high glucose medium, containing fetal calf serum (10%, heat inactivated for 30 min at 56° C.), penicillin/streptomycin (1%), and 375 μg/ml geneticin (Gibco). […] With each new membrane batch the dissociation constant (Kd) was determined via a saturation curve. […] After addition of 45 μl of Microscint 40 (PerkinElmer) the Unifilter-96 plate was sealed and after 1 hr the ratioactivity counted using a TopCount Microplate Scintillation Counter (Packard Instrument Company).

Ki: 0.0019 µM
SMILES: O=C(Nc1ccc(C2CCCNC2)cc1)c1cnn(-c2ccccc2)n1 (racemic) [Example 35, (RS)-2-Phenyl-N-(4-(piperidin-3-yl)phenyl)-2H-1,2,3-triazole-4-carboxamide]
